# Target: PCAF bromodomain (His/Flag epitope tagged PCAF719-832) (Homo sapiens (Human), UniProt Q92831)
# Amino acid sequences for entries named in this document (tags omitted). Residues count along the entry.
# UniProt Q92831, 719-832: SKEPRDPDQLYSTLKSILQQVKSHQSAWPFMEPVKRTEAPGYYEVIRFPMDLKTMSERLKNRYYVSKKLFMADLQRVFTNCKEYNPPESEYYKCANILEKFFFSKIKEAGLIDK
# Assay: PCAF AlphaLisa binding assay
# Conditions: PCAF bromodomain 225 nM, biotinylated small molecule ligand 6 nM
# Procedure: IC50 Measurements for Inhibitors Using PCAF AlphaLisa Binding Assay
# PCAF bromodomain binding and inhibition of the compounds disclosed herein was assessed by monitoring the engagement of biotinylated small molecule ligand (known to bind to the PCAF bromodomain) with the target using the AlphaLisa technology (Perkin-Elmer).
row,Compound,IC50
1,"C[C@H]1C[C@@H](Nc2cnn(C)c(=O)c2Cl)CN(C)C1 [Example 22, 4-chloro-5-(((3R,5S)-1,5-dimethylpiperidin-3-yl)amino)-2-methylpyridazin-3(2H)-one]",0.0215 µM
2,"Cn1ncc(N[C@H]2CCCN(Cc3ccccc3)C2)c(Cl)c1=O [Example 8, (S)-5-((1-benzylpiperidin-3-yl)amino)-4-chloro-2-methylpyridazin-3(2H)-one]",0.349 µM
3,"Cn1ncc(NC2CCCN(CCCc3ccccc3)C2)c(Cl)c1=O (racemic) [Example 41, Racemic-4-chloro-2-methyl-5-[[1-(3-phenylpropyl)-3-piperidyl]amino]pyridazin-3-one]",0.232 µM

# Continued by falling IC50, values first:
row,IC50,Compound
1,0.902 µM,"C[C@@H]1C[C@H](Nc2cnn(C)c(=O)c2Cl)CN(C)C1 [Example 23, 4-chloro-5-(((3S,5R)-1,5-dimethylpiperidin-3-yl)amino)-2-methylpyridazin-3(2H)-one]"
2,0.0856 µM,"Cn1ncc(N[C@@H]2CCCN(Cc3ccccc3)C2)c(Cl)c1=O [Example 7, (R)-5-((1-benzylpiperidin-3-yl)amino)-4-chloro-2-methylpyridazin-3(2H)-one]"
